Source: patent US20240240224A1, “FLUORESCENT D-TYPE AMINO ACID METABOLISM MARKER-BASED METHOD FOR DETECTING ANTIBACTERIAL DRUG SENSITIVITY TEST” (priority 2020, published 2024)

How the values were obtained:
Details in all cases: unit assumed
[1] = system: E. faecium Ef26; test: BMD susceptibility test; assay type: cell-based, Enterococcus faecium
[2] = system: E. faecium Ef28; test: BMD susceptibility test; assay type: cell-based, Enterococcus faecium
[3] = system: K. pneumoniae Kp9; test: BMD susceptibility test; assay type: cell-based, Klebsiella pneumoniae
[4] = system: E. coli Ec13; test: BMD susceptibility test; assay type: cell-based, Escherichia coli
[5] = system: K. pneumoniae Kp9; test: FaAST (FDAA metabolic labeling); assay type: cell-based, Klebsiella pneumoniae
Protocol: (§1) The specific experimental steps are as follows: • 1. Take the colony to be tested that has been cultured overnight on the plate and fully mix it in normal saline to make a uniform bacterial solution. Dilute it into CAMHB medium to make a bacterial solution with OD600=0.05. • 2. Add 45 μl antibiotic solutions to be tested of different concentrations to 96-well plates (see Table 3 for antibiotic concentration gradient settings). • 3. Add 50 μl of bacterial solution prepared in Step 1 to the 96-well plate and mix well. • 4.5 μl of 10 mM Cy5-DAA probe was added to each well (final concentration was 0.15 mM, and its structure was shown in FIG. 1). After mixing, the probe was incubated for 2 hours in the dark. • 5. After dilution with 200 μl PBS solution, the fluorescence intensity of each sample was detected by flow cytometry.

[6] = system: E. coli Ec13; test: FaAST (FDAA metabolic labeling); assay type: cell-based, Escherichia coli
Protocol: as §1

[7] = system: E. faecium Ef28; test: FaAST (FDAA metabolic labeling method); assay type: cell-based, Enterococcus faecium
Protocol: Take the colony to be tested that has been cultured overnight on the plate and fully mix it in normal saline to make a uniform bacterial solution. Dilute it into Cation-Adjusted Mueller Hinton Broth (CAMHB) culture medium to make a bacterial solution with OD600=0.05. • 2. Add 45 μl antibiotic solutions of different concentrations to 96-well plates (see Table 1 for antibiotic concentration gradient settings). • 3. Add 50 μl of the bacterial solution prepared in step 1 to the 96-well plate and mix well. • 4. Add 5 μl of 10 mM Cy5-DAA probe (final concentration 0.15 mM, see FIG. 1 for its structure) into each well, mix well, and cultivate in dark for 2 hours. • 5. Add 200 μl After PBS solution is diluted, the fluorescence intensity of each sample is detected by flow cytometry. […] The MIC (minimum inhibitory concentration) can be obtained by referring to this curve.

BMD (MIC) [3] [µg/mL]	BMD (MIC) [4] [µg/mL]	FaAST (MIC) [5] [µg/mL]	FaAST (MIC) [6] [µg/mL]	FaAST (MIC) [7] [µg/mL]	Compound	BMD (MIC) [1] [µg/mL]	BMD (MIC) [2] [µg/mL]
					C[C@H]1COc2c(N3CCN(C)CC3)c(F)cc3c(=O)c(C(=O)O)cn1c23 [Levofloxacin, levofloxacin]	> 256	> 256
> 256	> 256	> 256	> 256		CO/N=C(\C(=O)N[C@@H]1C(=O)N2C(C(=O)O)=C(COC(N)=O)CS[C@H]12)c1ccco1 [Cefuroxime]		
				256	CC1(C)S[C@@H]2[C@H](NC(=O)Cc3ccccc3)C(=O)N2[C@H]1C(=O)O [Penicillin G, penicillin G]		> 256
